Yeast mating assay B: variants of the scFv Ab-14

Data: MIT Lincoln Laboratory AlphaSeq set, Li et al. 2023, doi:10.1038/s41467-023-39022-2, as distributed in FLAb.

Target peptide (SARS-CoV-2 spike, HR2 region): PDVDLGDISGINAS

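Designed CDR sequences, proposed from the first random library and measured here. Group labels follow the data file (Ctrl: baseline library sampled from a position-specific scoring matrix, with some repeated check sequences; Rand: our label for a block that the file lists under HC and that is probably the random mutants of the ten best first-round binders; En: ensemble of fine-tuned language models; GP: Gaussian process model; HC: hill climbing; Gen: genetic algorithm; Gibbs: Gibbs sampling; a sequence that several methods proposed may carry one label only). AlphaSeq pools MATa yeast showing the antibodies with MATalpha yeast showing the peptide. Mating (16 h, 30 °C) was followed by selection of diploids and sequencing of their barcodes. Scores were corrected for input abundance and mapped to Kd with protein pairs of known affinity run in the same pool. The assay was run in six technical replicates.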

The variants keep the heavy chain, the linker and the frameworks of Ab-14 (scFv order VH, the linker GGGGSGGGGSGGGGS, VL).
VH: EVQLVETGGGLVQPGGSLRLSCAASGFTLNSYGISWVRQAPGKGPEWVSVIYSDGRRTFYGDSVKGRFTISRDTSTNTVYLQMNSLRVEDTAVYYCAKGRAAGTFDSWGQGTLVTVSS
VL: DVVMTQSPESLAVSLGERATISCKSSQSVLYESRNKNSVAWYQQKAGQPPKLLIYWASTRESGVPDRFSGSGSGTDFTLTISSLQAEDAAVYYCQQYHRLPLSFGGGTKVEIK

The parent's light chain CDRs are KSSQSVLYESRNKNSVA, WASTRES, QQYHRLPLS; each variant's own CDRs replace them letter for letter. Variants here have more than six changes. The read-out is the apparent dissociation constant on a log10 scale (nM): the lower, the stronger. The mean shown is taken over the replicates in which the pair was detected. An entry "no signal" has no value in the source: the pair was not observed among the diploids in any replicate. This suggests poor binding but is not conclusive.

| CDR-L1 | CDR-L2 | CDR-L3 | group | log10 Kd (nM), mean | seen in |
|---|---|---|---|---|---|
| KASPSEEYESRNKNSVA | NASYREE | QQYHRLPLS | GP_Gibbs | 0.34 | 6/6 |
| KLSMITGHQLMSKNNVA | EMETREN | QQYDRLPLS | En_Gen | 1.23 | 6/6 |
| TLYGLSNSMSINKNSVA | EMTTREK | QQYDRLPLE | En_Gen | no signal | 0/6 |
| HILQNMMYQSRNINSVA | HQSTRED | QQYHSLPLS | En_HC | 1.19 | 6/6 |
| IVSQLMIWGMHYKNSIA | EAELRLN | QQYDRLPLF | En_Gen | 0.91 | 4/6 |
| MVTQMAMTGMMTKRSVA | NATTREE | QQYHRLPLI | En_Gen | 0.81 | 6/6 |
| KMSPSYLYEDRAFNSVA | NASTREQ | QQYHRLPLS | GP_Gibbs | 0.69 | 6/6 |
| KQSQSGLYESRNKPSVA | DASTRES | QMYHKLPLM | Rand | 0.92 | 6/6 |
| MFSQLVYMGSRTKNAVA | QASTREN | QQYHRLPLS | En_HC | no signal | 0/6 |
| MIYGAQRELGLKANSIA | DNVTRYN | QQYERLPLS | En_Gen | 2.51 | 5/6 |
| KISYLQNQTFEQSNNVA | EMATREN | QQYDRLPLS | En_Gen | 1.79 | 4/6 |
| KLQQSMLYESRNDNSVA | DASMRES | QQYHRLPLF | GP_Gibbs | 0.28 | 6/6 |
| KVSEFMRGLMKMQDSIA | DNETRPN | QQYDRLPLS | En_Gen | 2.31 | 3/6 |
| KMSQSWLGEDWNKNSVA | QASQRMS | QQYHRLPLS | GP_Gibbs | 0.43 | 6/6 |
| KMEMDFRGNDVNRNSIA | SDEAVTR | QHYARLPLS | En_Gibbs | no signal | 0/6 |
| KSSQSELYESRDANSVA | RASTRES | QLYHMLPLR | Ctrl | 1.91 | 6/6 |
| AISFEMESPHNHSNNVA | SESKLCS | QQYFTLPLS | En_Gibbs | 0.91 | 6/6 |
| QLGDEQVSETLMANNIA | HSDFRAD | QQYFRLPLL | En_Gibbs | 0.77 | 6/6 |
| KLSWDCTTDLNQMHSVA | ESEVAVD | QQYAHLPLT | En_Gibbs | 1.38 | 6/6 |
| KLGMTLNQLMHKKNNVA | DLVERET | QQYHRLPLS | En_Gen | 0.30 | 6/6 |
| SFERGIDGNSLVQNNVA | EGTTLWE | QQYMRLPLA | En_Gibbs | -0.16 | 6/6 |
| TISQLMNMGQFAINSVA | QAEIRNA | QQYDRLPLA | En_Gen | 1.34 | 6/6 |
| HIDHEWNHGANRDNNIA | EAQTVAA | QDYFRLPII | En_Gibbs | 1.70 | 6/6 |
| KISQWKLGEWRNKNSVA | DASQRES | QQYHRLPLS | GP_Gibbs | -0.07 | 6/6 |
| KIGMTLNQLQQKKNNVA | DLVHREN | QQYHRLPLS | En_Gen | 0.34 | 6/6 |
| KLDISHLYESRNWNSVA | NASTREE | QQYHRLPLS | GP_Gibbs | -0.05 | 6/6 |
| MISEVMNTLTRHGNNVA | DLQNREN | QQYFRLPLS | En_Gen | 2.71 | 1/6 |
| MISDLTYVGLRNVNSVA | DLSTRGN | QQYDRLPLS | En_HC | 0.79 | 6/6 |
| TLSQMSGVESVKHNSVA | ENSTREN | QQYDRLPLA | En_Gen | 1.30 | 6/6 |
| KIGQQVTYESTKKNAIA | QMTTREE | QQYHRLPLS | En_HC | 0.70 | 6/6 |
| TISQSTYWETFNRNNVA | QTSTREE | QDYDRLPLS | En_HC | 1.63 | 6/6 |
| TLGIQPTEMRDNKHAVA | DDEQRDR | QQYMRLPLS | En_Gibbs | 0.29 | 6/6 |
| KLSQSMLYESRNKNNVA | EASQREQ | QSYHRLPLS | GP_Gibbs | 0.11 | 6/6 |
| MFSQMTGLGMKASNSVA | QASMRFD | QQYHRLPLI | En_Gen | 1.87 | 6/6 |
| SLYEAMQTGKLRTSNIA | DVNQQMR | QQYSRLPLM | En_Gibbs | 0.28 | 6/6 |
| IISQVDAYESRLKNSIA | DQSTRGS | QQYDRLPLS | En_HC | 1.29 | 6/6 |
| KLSLFYRMETRNKDSVA | DNSTRES | QDYDRLPLS | En_HC | 1.52 | 1/6 |
| KMSESELYEDRNQNSVA | SASQRLS | QQYHRLPLS | GP_Gibbs | 0.28 | 6/6 |
| KFSQQVLYESRAMNSVA | DASQRLS | QQYHRLPLS | GP_Gibbs | -0.28 | 6/6 |
| QLNEYKHETMAKTQNIA | DMTIREP | QQYAHLPLA | En_Gibbs | -0.08 | 6/6 |
| VLGGQWGLGTTQNSSIA | NDSETML | QQYWRLPFM | En_Gibbs | no signal | 0/6 |
| KLSQDYCYGDRNKNSVA | QASTREQ | QQYHRLPLS | GP_Gibbs | 0.01 | 6/6 |
| HINEVDPGVKNKYNNIA | DISEAAI | QQYFQLPLS | En_Gibbs | 0.43 | 6/6 |
| KLSYITGTEKVHGNNVA | EMETRER | QQYNRLPLA | En_Gen | 1.52 | 6/6 |
| KLGQSVAMTSRMKNNVA | DLNERER | QQYYRLPLS | En_HC | 0.19 | 6/6 |
| HLGLATMLEEHVRNSVA | NNSTREQ | QQYDRLPLS | En_Gen | 1.78 | 6/6 |
| KISGYLNKESKNSNSVA | EMVNRES | QQYDRLPLS | En_HC | 1.51 | 6/6 |
| KIGATLNTLYEKQNNVA | DLVEREN | QQYFRLPLS | En_Gen | 0.62 | 6/6 |
| KLLQTVRNGRYNRNNVA | HMTMRED | QQYFRLPLS | En_HC | 2.06 | 5/6 |
| KLSQSFLYEERNPNSVA | NASKREL | QQYHRLPLS | GP_Gibbs | -0.04 | 6/6 |
| TIGQTLMYGMRNRSNVA | EVSERLN | QQYDRLPLI | En_Gen | no signal | 0/6 |
| KLVPSELYESRQSNSVA | NASYRES | QQYHRLPLS | GP_Gibbs | 0.08 | 6/6 |
| KFSQSEMYESRNKNPVA | NASQRYQ | QQYHRLPLS | GP_Gibbs | 0.28 | 6/6 |
| MISQLFNMGQFAINSVA | QASERCN | QQYDRLPLI | En_Gen | 1.67 | 6/6 |
| TISGVMQQMSHSKSNVA | EVSTRLD | QQYVRLPLA | En_Gen | 0.13 | 6/6 |
| KISQMVNYESTHVQAVA | QMSTREE | QQYFRLPLS | En_HC | 0.62 | 6/6 |
| MLDNCQAGYYQKNNNVA | EMNIRCY | QQYGRLPLM | En_Gibbs | 1.62 | 1/6 |
| MFSQSVMYGSFMRNSVA | QTETREN | QQYDRLPLS | En_HC | 0.71 | 6/6 |
| MISDMGLHDTRMQNSVA | NNSTREA | QQYHRLPLS | En_HC | 1.67 | 6/6 |
| MISQVMNTLTRHGNNVA | DLAEREQ | QQYFRLPLS | En_Gen | no signal | 0/6 |
| TISGMTNQAQMKSNSVA | NVTLRPD | QQYHRLPLS | En_Gen | 1.05 | 6/6 |
| HMSMLTLQGMRHMNSVA | QMTTRVN | QQYDRLPLT | En_Gen | 1.00 | 6/6 |
| MISNVMNTLTHVGNNVA | DLAEREQ | QQYFRLPLS | En_Gen | 1.03 | 5/6 |
| KISQTFNVGTKNTNSLA | EMNTRGF | QDYHRLPLS | En_HC | 1.36 | 6/6 |
| KISQSVLYQARNQNSVA | SASTRMH | QQYHRLPLS | GP_Gibbs | 0.75 | 6/6 |
| MLGDVAFGLQRKQNSVA | DNSTREN | QQYDRLPLS | En_Gen | 1.72 | 6/6 |
| MLLQSTMYGQRNRNSVA | HASTRED | QQYHRLPLI | En_HC | 1.42 | 6/6 |
| KLSQVTHSEHRIKNSIA | EMVTREK | QQYDRLPLS | En_HC | 1.59 | 6/6 |
| KVQNGLERGNQAYSAVA | DVTEKGA | QQYLQLPLG | En_Gibbs | 0.39 | 6/6 |
| KISQMVRVGSTHSNSIA | EEETRAD | QQYHRLPLS | En_Gen | 0.52 | 6/6 |
| KASPSMEYESRNKNSVA | HASLRLE | QQYHRLPLS | GP_Gibbs | 0.02 | 6/6 |
| IVSQLFLWGMHAKNSIA | EAELRLN | QQYDRLPLF | En_Gen | no signal | 0/6 |
| TISDLMHSESRNVNNVA | DLVKREK | QQYHRLPLS | En_HC | 0.37 | 6/6 |
| KVEQGVMMGSRNKNSVA | HASVREQ | QQYHRLPLS | GP_Gibbs | 0.35 | 6/6 |
| KVSQMQPYESRNKNNVA | NASTRMS | QQYHRLPLS | GP_Gibbs | -0.15 | 6/6 |
| IISQSMLYEPRNWNSVA | NASTRWS | QQYHRLPLS | GP_Gibbs | 0.60 | 6/6 |
| KLSQSDLYEDRNLNNVA | NASQRES | QVYHRLPLM | GP_Gibbs | -0.32 | 6/6 |
| TISQSAQMEHHNKNSVA | DLNVRGS | QQYDRLPLS | En_HC | 0.22 | 6/6 |
| TISGVMMQLSHSKNNVA | EVSMRLE | QQYVRLPLA | En_Gen | 1.30 | 6/6 |
| KQSQSTLYESGMKNSVA | NASKRMD | QQYHRLPLS | GP_Gibbs | 0.09 | 6/6 |

The opening 12 entries, copied out:

{"CDR-L1": "KASPSEEYESRNKNSVA", "CDR-L2": "NASYREE", "CDR-L3": "QQYHRLPLS", "group": "GP_Gibbs", "log10 Kd (nM), mean": "0.34", "seen in": "6/6"}
{"CDR-L1": "KLSMITGHQLMSKNNVA", "CDR-L2": "EMETREN", "CDR-L3": "QQYDRLPLS", "group": "En_Gen", "log10 Kd (nM), mean": "1.23", "seen in": "6/6"}
{"CDR-L1": "TLYGLSNSMSINKNSVA", "CDR-L2": "EMTTREK", "CDR-L3": "QQYDRLPLE", "group": "En_Gen", "log10 Kd (nM), mean": "no signal", "seen in": "0/6"}
{"CDR-L1": "HILQNMMYQSRNINSVA", "CDR-L2": "HQSTRED", "CDR-L3": "QQYHSLPLS", "group": "En_HC", "log10 Kd (nM), mean": "1.19", "seen in": "6/6"}
{"CDR-L1": "IVSQLMIWGMHYKNSIA", "CDR-L2": "EAELRLN", "CDR-L3": "QQYDRLPLF", "group": "En_Gen", "log10 Kd (nM), mean": "0.91", "seen in": "4/6"}
{"CDR-L1": "MVTQMAMTGMMTKRSVA", "CDR-L2": "NATTREE", "CDR-L3": "QQYHRLPLI", "group": "En_Gen", "log10 Kd (nM), mean": "0.81", "seen in": "6/6"}
{"CDR-L1": "KMSPSYLYEDRAFNSVA", "CDR-L2": "NASTREQ", "CDR-L3": "QQYHRLPLS", "group": "GP_Gibbs", "log10 Kd (nM), mean": "0.69", "seen in": "6/6"}
{"CDR-L1": "KQSQSGLYESRNKPSVA", "CDR-L2": "DASTRES", "CDR-L3": "QMYHKLPLM", "group": "Rand", "log10 Kd (nM), mean": "0.92", "seen in": "6/6"}
{"CDR-L1": "MFSQLVYMGSRTKNAVA", "CDR-L2": "QASTREN", "CDR-L3": "QQYHRLPLS", "group": "En_HC", "log10 Kd (nM), mean": "no signal", "seen in": "0/6"}
{"CDR-L1": "MIYGAQRELGLKANSIA", "CDR-L2": "DNVTRYN", "CDR-L3": "QQYERLPLS", "group": "En_Gen", "log10 Kd (nM), mean": "2.51", "seen in": "5/6"}
{"CDR-L1": "KISYLQNQTFEQSNNVA", "CDR-L2": "EMATREN", "CDR-L3": "QQYDRLPLS", "group": "En_Gen", "log10 Kd (nM), mean": "1.79", "seen in": "4/6"}
{"CDR-L1": "KLQQSMLYESRNDNSVA", "CDR-L2": "DASMRES", "CDR-L3": "QQYHRLPLF", "group": "GP_Gibbs", "log10 Kd (nM), mean": "0.28", "seen in": "6/6"}

The authors' rule: three or more of the six replicates give a measured affinity, fewer mean a poor binder. Values of this round are not directly comparable with the first-round values of the same sequences. As a blank, each scFv also met three strains without target: over all light chain designs, 4% of these pairings were detected, typically at 2.64 and seldom below 1.59.